The numbers were not newly measured in patent US12275795B2, “Binding molecules against BCMA and uses thereof” (NOVARTIS AG, priority 2018, dated 2025), which cites them from elsewhere.

The test system of this data set is EGFR mutant NSCLC. The conditions noted are these: cited from earlier work.

For the compound `Cc1cc(C(=O)Nc2nc3cccc(Cl)c3n2[C@@H]2CCCCN(C(=O)/C=C/CN(C)C)C2)ccn1` [Compound A40, (R,E)-N-(7-chloro-1-(1-(4-(dimethylamino)but-2-enoyl)azepan-3-yl)-1H-benzo[d]imidazol-2-yl)-2-methylisonicotinamide], the efficacy in patients entry is given as “has shown efficacy in EGFR mutant NSCLC patients”.
